From PubChem BioAssay (EPA / NIEHS)
This is a selection; strong and weak results do not stand in their true shares. The source made the active and inactive calls. How the source made its calls: active means hit-call score of the fitted dose curve at least 0.9, where 1 is the maximum; inactive means score below 0.9.

Assay: ATG_Sox_CIS: Attagene CIS-FACTORIAL HepG2 Assay for human SRY-box transcription factor (SOX) (AID 2282960)
Settings: HepG2 Attagene cis-factorial SOX reporter, mRNA; actives raise or lower the signal
Description: ATG_CIS is a cell-based, multiplexed-readout assay that uses HepG2, a human liver cell line, with measurements taken at 24 hours after chemical dosing in a 24-well plate.ATG_Sox_CIS is one of 52 assay component(s) measured or calculated from the ATG_CIS assay. It is designed to make measurements of mRNA induction, a form of inducible reporter, as detected with fluorescence intensity signals by Reverse transcription polymerase chain reaction (RT-PCR) and Capillary electrophoresis technology.Data from the assay component ATG_Sox_CIS was analyzed into 1 assay endpoint. This assay endpoint, ATG_Sox_CIS, was analyzed with bidirectional fitting relative to DMSO as the negative control and baseline of activity. Using a type of inducible reporter, measures of mRNA for gain or loss-of-signal activity can be used to understand the reporter gene at the transcription factor-level as they relate to the gene SOX1. Furthermore, this assay endpoint can be referred to as a primary readout, because this assay has produced multiple assay endpoints where this one serves a reporter gene function. To generalize the intended target to other relatable targets, this assay endpoint is annotated to the dna binding intended target family, where the subfamily is HMG box protein.
Human liver HepG2 cells are transiently transfected with multiple reporter transcription units (MRTUs) in 6-well plates using FuGene 6 reagent (Roche; 3 ml FuGene/1 mg DNA). The MRTU constructs are regulated by a cis-regulating element (promoter). […] A major difference between the CIS and TRANS system is that in CIS activities of endogenous TFs are measured, whereas the TRANS assay evaluates changes in activities of exogenous, chimeric NR-Gal4 proteins. […] At the end of 24 hour incubation, total RNA was isolated using TriZol reagent (Invitrogen). The isolated RNA is then reverse-transcribed using oligo(dT) primer and Mo-MLV reverse transcriptase (Invitrogen) with DNAse I (Ambion) treatment for 30 min. The one-tenth of the produced cDNA was amplified by PCR using Taq DNA polymerase (Invitrogen) and two reporter sequence-specific primers. The PCR products were fluorescently labeled by primer extension with 6-arboxyfluorescein (6-FAM) 5'-labeled reporter sequence-specific primer (2 min at 95 C, 20 s at 68 C and 10 min at 72 C) and these products were digested with 5U of HpaI (New England Biolabs) for 2h at 37 C. The fragments were purified using Qiaquick PCR columns (Qiagen), analyzed on an ABI 3130xL genetic analyzer (Applied Biosystems) with peak positions identified by using a set of X-rhodamine (ROX)-labeled MapMarker1000 molecular weight standards (BioVentures). The raw capillary electrophoresis data was processed using Attagraph software (Attagene).
In the case of `CN(C)CCCl`, the outcome is reported as “inactive”.
For `COP(C)(=O)OC`, the outcome was “inactive”.
With `Cc1cccc([N+](=O)[O-])c1[N+](=O)[O-]` the outcome was “inactive”.
With `Cc1ccc([N+](=O)[O-])c([N+](=O)[O-])c1` the outcome was “inactive”.
With `COc1ccc([N+](=O)[O-])cc1[N+](=O)[O-]` the outcome was “inactive”.
For `Cc1ccc([N+](=O)[O-])cc1[N+](=O)[O-]`, the outcome was “inactive”.
For `N#CBr`, the outcome was “inactive”.
In the case of `Cc1c([N+](=O)[O-])cccc1[N+](=O)[O-]`, the outcome is reported as “inactive”.
For `O=[N+]([O-])OCC(CO[N+](=O)[O-])(CO[N+](=O)[O-])CO[N+](=O)[O-]`, the outcome was “inactive”.
In the case of `O=[N+]([O-])c1cccc([N+](=O)[O-])c1`, the outcome is reported as “inactive”.
For `CC(C)N(CCO)C(C)C`, the outcome was “inactive”.
In the case of `CC(C)OP(C)(=O)OC(C)C`, the outcome is reported as “inactive”.
